The values below are quoted from earlier work in patent US10046060B2, “Co-administration of an agent linked to an internalization peptide with an anti-inflammatory” (NoNO Inc., priority 2007, dated 2018).

Some compounds may have been tested in ways that are not shown here.

The conditions of the data set: Table 1 comment; cited from earlier work.

On to `CCC(=O)N(c1ccccc1)C1(C(=O)OC)CCN(CCC(=O)OC)CC1`, for which the halflife is 3.5 min.
